Results: patent US20190322750A1 (Y BIOLOGICS, published 2019)

Molecular target: T1, PD-L2-Fc (human, UniProt Q9BQ51)
T1 construct: recombinant Fc fusion; also called human PD-L2-Fc (#10292-H02H, Sino)
T1 sequence (ligand-Fc, looked up): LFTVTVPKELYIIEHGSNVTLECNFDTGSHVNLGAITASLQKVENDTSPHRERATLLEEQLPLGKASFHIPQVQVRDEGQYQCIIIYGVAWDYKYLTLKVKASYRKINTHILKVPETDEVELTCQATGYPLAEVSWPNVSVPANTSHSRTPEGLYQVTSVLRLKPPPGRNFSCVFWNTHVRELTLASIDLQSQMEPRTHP
Experiment: ELISA on coated PD-L2-Fc, OD450nm

binding result: binds
B1: PD1-His (receptor)
chain: LDSPDRPWNPPTFSPALLVVTEGDNATFTCSFSNTSESFVLNWYRMSPSNQTDKLAAFPEDRSQPGQDCRFRVTQLPNGRDFHMSVVRARRNDSGTYLCGAISLAPKAQIKESLRAELRVTERRAEVPTAHPSPSPRPAGQFQTLV
notes: also called human PD-1-His (S1352, Y-Biologics); not shown: exact construct limits of Y-Biologics S1352
